Reference: patent publication US20230234957A1, “PROTEIN TAG TO INDUCE LIGAND DEPENDENT DEGRADATION OF PROTEIN/PROTEIN-FUSIONS” (DANA-FARBER CANCER INSTITUTE, INC., priority 2020, published 2023)

Target: BRD4BD1L94V-EGFP (Homo sapiens, UniProt O60885, L94V)
Assay: Cellular degradation EGFP/mCherry reporter assay (Acumen) in Flp293T cells

Row | Structure (SMILES) | Fold selectivity BRD4 BD1/BD1 L94V
1 | COc1ccc2c(c1)C(c1ccc(Cl)cc1)=N[C@@H]([C@@H](C)C(=O)NCCCCCCCNC(=O)COc1cccc3c1C(=O)N(C1CCC(=O)NC1=O)C3=O)c1nnc(C)n1-2 (stereo partly drawn) [Compound 2, (2R)-2-((4S)-6-(4-chlorophenyl)-8-methoxy-1-methyl-4H-benzo[f][1,2,4]triazolo[4,3-a][1,4]diazepin-4-yl)-N-(7-(2-((2-(2,6-dioxopiperidin-3-yl)-1,3-dioxoisoindolin-4-yl)oxy)acetamido)heptyl)propanamide] | >1,600 fold
2 | COc1ccc2c(c1)C(c1ccc(Cl)cc1)=N[C@@H]([C@@H](C)C(=O)NCCCCCCCCCNC(=O)COc1cccc3c1C(=O)N(C1CCC(=O)NC1=O)C3=O)c1nnc(C)n1-2 (stereo partly drawn) [Compound 3, (2R)-2-((4S)-6-(4-chlorophenyl)-8-methoxy-1-methyl-4H-benzo[f][1,2,4]triazolo[4,3-α][1,4]diazepin-4-yl)-N-(9-(2-((2-(2,6-dioxopiperidin-3-yl)-1,3-dioxoisoindolin-4-yl)oxy)acetamido)nonyl)propanamide] | 460 fold
